## AlphaSeq binding of Ab-14 heavy chain variants to a spike HR2 peptide

Source: Engelhart et al. 2022 (doi:10.1038/s41597-022-01779-4), MIT Lincoln Laboratory and A-Alpha Bio; data file from the FLAb repository.

Antigen: PDVDLGDISGINAS, a 14-residue peptide of the SARS-CoV-2 spike HR2 region.

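The starting antibody came from a phage panning campaign against this peptide. Library AAYL49 holds single substitutions and randomly drawn double and triple substitutions in the CDRs. Affinity was read by AlphaSeq, a pooled yeast mating assay with surface-displayed partners. Binding brings cells together so that they mate, and sequencing counts the barcode pairs among the diploids. A regression on co-assayed BCL2-family reference pairs converts the normalised counts of each replicate to an apparent Kd. Mating was done three times.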

The variants keep the light chain, the linker and the frameworks of Ab-14 (scFv order VH, a (GGGGS)3 linker, VL).
VH: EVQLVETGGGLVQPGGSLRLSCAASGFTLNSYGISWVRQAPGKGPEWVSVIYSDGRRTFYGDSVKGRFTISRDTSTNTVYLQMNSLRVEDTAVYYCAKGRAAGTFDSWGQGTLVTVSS
VL: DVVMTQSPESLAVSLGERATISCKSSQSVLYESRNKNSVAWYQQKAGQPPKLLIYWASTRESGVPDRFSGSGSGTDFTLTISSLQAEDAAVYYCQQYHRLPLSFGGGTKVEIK

The whole VH of each variant is written out.
Numbers give log10(Kd / nM), so 0 is 1 nM and 3 is 1 µM. Smaller is tighter.
"nd" marks a missing value. The strain was present, yet no cells mated with the target were sequenced in that replicate, which points to weak or no binding.

VH | log10 Kd, replicates | signal with controls
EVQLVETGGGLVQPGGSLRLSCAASGFTLNSYGISWVRQAPGKGPEWVSVIPSDGRYFFYGDSVKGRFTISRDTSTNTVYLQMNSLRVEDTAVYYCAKGRAAGTFDSWGQGTLVTVSS | nd nd nd | 5 of 9 (4.12)
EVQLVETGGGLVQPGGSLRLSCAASGFTLNSYGISWVRQAPGKGPEWVSVIYSDQRRTFYGTSVKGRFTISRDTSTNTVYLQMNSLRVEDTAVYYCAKRRAAGTFDSWGQGTLVTVSS | 4.85 3.66 nd | 1 of 9 (4.56)
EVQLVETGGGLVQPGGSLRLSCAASGTDLNSYGISWVRQAPGKGPEWVSVIYSDGRRTFYGDSVKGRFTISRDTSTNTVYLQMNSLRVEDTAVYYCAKGRAAGTFDSWGQGTLVTVSS | 0.31 0.67 0.50 | 0 of 9
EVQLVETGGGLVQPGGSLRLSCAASGFTLNSYGISWVRQAPGKGPEWVSVIYSGGRRTFYKDSVKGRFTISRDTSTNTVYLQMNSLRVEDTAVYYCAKGRWAGTFDSWGQGTLVTVSS | nd nd nd | 1 of 9 (3.71)
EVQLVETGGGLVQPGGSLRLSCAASAFTLNSYGISWVRQAPGKGPEWVSVIYSDGRRTFYGDSVKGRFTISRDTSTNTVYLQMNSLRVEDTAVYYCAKGRAPGTFTSWGQGTLVTVSS | 2.87 2.69 nd | 2 of 9 (3.18)
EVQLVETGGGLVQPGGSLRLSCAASGFHLNSYGISWVRQAPGKGPEWVSVIYADGRRTFTGDSVKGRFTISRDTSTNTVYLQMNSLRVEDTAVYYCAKGRAAGTFDSWGQGTLVTVSS | 1.62 1.42 1.49 | 2 of 9 (4.41)
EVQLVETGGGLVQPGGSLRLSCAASGFTLNSHGISWVRQAPGKGPEWVSVIYSDGVQTFYGDSVKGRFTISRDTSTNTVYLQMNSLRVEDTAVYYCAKGRAAGTFDSWGQGTLVTVSS | nd nd nd | 0 of 9
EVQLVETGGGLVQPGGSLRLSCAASGFTLNSYGISWVRQAPGKGPEWVSVIYSDGRFTFYGDKVKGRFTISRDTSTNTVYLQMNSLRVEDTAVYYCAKHRAAGTFDSWGQGTLVTVSS | nd nd 4.61 | 1 of 9 (3.03)
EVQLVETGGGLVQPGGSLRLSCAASGFTLNSYGISWVRQAPGKGPEWVSVIYSDGRRTTYADSVKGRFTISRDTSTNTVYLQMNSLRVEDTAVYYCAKGRAAETFDSWGQGTLVTVSS | 0.70 0.88 0.89 | 2 of 9 (4.33)
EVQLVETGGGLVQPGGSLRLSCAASPFTLNSYGISWVRQAPGKGPEWVSVIYSDERRTFYGDSVKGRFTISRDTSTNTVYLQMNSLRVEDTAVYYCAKGRHAGTFDSWGQGTLVTVSS | 4.20 4.44 4.29 | 4 of 9 (4.47)
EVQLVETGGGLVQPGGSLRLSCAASGFTKNSYGISWVRQAPGKGPEWVSVIYSDGRFTFYGDSVKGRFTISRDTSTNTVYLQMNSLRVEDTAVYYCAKGRAAGTFDSWGQGTLVTVSS | nd 3.94 nd | 4 of 9 (4.36)
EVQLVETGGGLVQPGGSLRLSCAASGFTLNCYGTSWVRQAPGKGPEWVSVIYSDGRRTFYEDSVKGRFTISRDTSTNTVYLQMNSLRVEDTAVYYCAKGRAAGTFDSWGQGTLVTVSS | nd nd nd | 0 of 9
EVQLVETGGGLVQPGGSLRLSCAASGFTLNSYGIVWVRQAPGKGPEWVSVLYSDGRRTFYIDSVKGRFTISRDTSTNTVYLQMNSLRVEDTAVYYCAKGRAAGTFDSWGQGTLVTVSS | nd 4.68 nd | 2 of 9 (5.12)
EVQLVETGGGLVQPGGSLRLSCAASVFTLNSYGISWVRQAPGKGPEWVSVIWSDGRRTFYGDSVKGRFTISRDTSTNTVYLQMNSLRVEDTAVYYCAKGRAAGTFDQWGQGTLVTVSS | nd nd 4.55 | 0 of 9
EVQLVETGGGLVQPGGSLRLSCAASGFTLNSYGISWVRQAPGKGPEWVSVIGSDGIRTFYGDSVKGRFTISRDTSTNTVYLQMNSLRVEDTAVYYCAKGRCAGTFDSWGQGTLVTVSS | nd nd nd | 1 of 9 (4.43)
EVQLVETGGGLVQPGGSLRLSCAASGFTLNSYGYSWVRQAPGKGPEWVSVIYSDGRRTFYDDSVKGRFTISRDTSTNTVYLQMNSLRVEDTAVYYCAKGRAAGDFDSWGQGTLVTVSS | 2.91 2.72 2.56 | 1 of 9 (3.57)

2 of these entries, quoted again:

VH	log10 Kd, replicates	signal with controls
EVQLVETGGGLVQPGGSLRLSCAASGFTLNSYGISWVRQAPGKGPEWVSVIGSDGIRTFYGDSVKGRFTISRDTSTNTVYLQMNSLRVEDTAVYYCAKGRCAGTFDSWGQGTLVTVSS	nd nd nd	1 of 9 (4.43)
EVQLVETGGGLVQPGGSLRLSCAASAFTLNSYGISWVRQAPGKGPEWVSVIYSDGRRTFYGDSVKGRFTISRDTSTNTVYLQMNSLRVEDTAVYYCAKGRAPGTFTSWGQGTLVTVSS	2.87 2.69 nd	2 of 9 (3.18)

Empty control strains, which show no peptide, gave a signal in 15% of pairings with library AAYL49; the median was 4.06 and 95% of these signals were weaker than 2.83. No background was subtracted. Also given: how often the same scFv was detected with the empty control strains, with their mean in brackets.
For reference, the parent read 0.65 as the reference entry and 4.11 (one replicate of three) as a member of this library.